Assay results as given in a protein production outcome set (Wang et al. 2014).

Experiment: label from the status in PepcDB records

Row | Sequence | protein production
1 | SSDMEDDFMCDDEEDYDLEYSEDSNSEPNVDLENQYYNSKALKEDDPKAALSSFQKVLELEGEKGEWGFKALKQMIKINFKLTNFPEMMNRYKQLLTYIRSAVTRNYSEKSINSILDYISTSKQMDLLQEFYETTLEALKDAKNDRLWFKTNTKLGKLYLEREEYGKLQKILRQLHQSCQTDDGEDDLKKGTQLLEIYALEIQMYTAQKNNKKLKALYEQSLHIKSAIPHPLIMGVIRECGGKMHLREGEFEKAHTDFFEAFKNYDESGSPRRTTCLKYLVLANMLMKSGINPFDSQEAKPYKNDPEILAMTNLVSAYQNNDITEFEKILKTNHSNIMDDPFIREHIEELLRNIRTQVLIKLIKPYTRIHIPFISKELNIDVADVESLLVQCILDNTIHGRIDQVNQLLELDHQKRGGARYTALDKWTNQLNSLNQAVVSKLA | failed
2 | MGHHHHHHSHGICLIIDCIGNETELLRDTFTSLGYEVQKFLHLSMHGISQILGQFACMPEHRDYDSFVCVLVSRGGSQSVYGVDQTHSGLPLHHIRRMFMGDSCPYLAGKPKMFFIQNYVVSEGQLEDSSLLEVDGPAMKNVEFKAQKRGLCTVHREADFFWSLCTADMSLLEQSHSSPSLYLQCLSQKLRQERKRPLLDLHIELNGYMYDWNSRVSAKEKYYVWLQHTLRKKLILSYT | failed
